According to BindingDB's records for doi:10.1021/jm980217s (Abbott Laboratories, 1998):
pIC50: −log10 of the molar value.

Experiment: Binding affinity for endothelin B receptor by measuring its ability to displace [125I]-ET-3 from porcine cerebellar tissue

pIC50: 4.78
SMILES: CCCCN(CCCC)C(=O)CN1C[C@H](c2cc(OC)c3c(c2)OCO3)[C@@H](C(=O)O)[C@@H]1CC(C)(C)CCC [1-Dibutylcarbamoylmethyl-2-(2,2-dimethyl-pentyl)-4-(7-methoxy-benzo[1,3]dioxol-5-yl)-pyrrolidine-3-carboxylic acid]
